Measurements as given in article PMC6454087, “A Variant of the Histone-Binding Protein sNASP Contributes to Mouse Lupus” (Frontiers in Immunology, 2019).

What was measured:
[1] = target: mouse H3.1/H4 tetramer complex (mouse, UniProt P68433 1-136; P62806 1-103); experiment: BLI; Octet K2, 30 C; sNASP WT or variant immobilised on aminopropylsilane (APS) biosensors, histones in assay buffer at various concentrations (62.5 to 1,000 nM shown for H4), association 240 s; n = 4; settings: both partners purified
mouse histone H3.1 = mouse histone H3.1 (mouse, UniProt P68433 1-136); experiment: as above; settings: both partners purified

Kd [1]: 40.2 nM
kon [1]: 24400 M⁻¹ s⁻¹
Kd (mouse histone H3.1): 13.6 nM
kon (mouse histone H3.1): 8690 M⁻¹ s⁻¹
B1: mouse WT sNASP (somatic nuclear autoantigenic sperm protein), B6 allele (natural protein)
chain: MATESTAAAAIAAELVSADKIEDAPAPSTSADKMESLDVDSEAKKLLGLGQKHLVMGDIPAAVNAFQEAASLLGKKYGETANECGEAFFFYGKSLLELARMENGVLGNALEGVHVEEEEGEKTEDESLVENNDNVDETEGSEEEDRENDKAEETPNESVLEKKSLQENEEEEIGNLELAWDMLDLAKIIFKRQETKEAQLYAAQAHLKLGEVSVESENYIQAVEEFQACLSLQEQYLEAHDRLLAETHYQLGLAYGYNSQYDEAVAQFGKSIDVIEKRMAVLHEQMKEAEGSFTEYEKEIEELKELLPEIREKIEDAKESQRSGNVAELALKATLVESSTSGFTPSGAGASVSMIASRKPTDGASSSNCVTDISHLVRKKRKPEEESPRKDDAKKAKQEPEVNGGSGDAVSSGKEVSENMEAEAENQAESQTAEGTVESAATIKSTAC
